Apparent affinities of Ab-14 variants for a coronavirus HR2 peptide

Data: MIT Lincoln Laboratory AlphaSeq set, Li et al. 2023, doi:10.1038/s41467-023-39022-2, as distributed in FLAb.

Antigen: PDVDLGDISGINAS, a 14-residue peptide of the SARS-CoV-2 spike HR2 region.

Parent: Ab-14, a human scFv built as VH, a (GGGGS)3 linker, VL. Only the CDRs of the heavy chain vary.
VH: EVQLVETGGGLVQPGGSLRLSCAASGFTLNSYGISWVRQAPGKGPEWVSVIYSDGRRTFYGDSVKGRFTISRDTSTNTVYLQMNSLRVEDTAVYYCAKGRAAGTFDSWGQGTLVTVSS
VL: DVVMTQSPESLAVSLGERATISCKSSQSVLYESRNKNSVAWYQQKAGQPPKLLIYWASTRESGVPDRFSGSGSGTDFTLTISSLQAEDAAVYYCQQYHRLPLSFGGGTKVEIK

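Phage display of a naive human antibody library on the peptide gave the parent. These sequences belong to a second round, designed from the earlier measurements on random variants of the parent. Group labels follow the data file (Rand: our label for a block that the file lists under HC and that is probably the random mutants of the ten best first-round binders; En: ensemble of fine-tuned language models; HC: hill climbing; Gen: genetic algorithm; Gibbs: Gibbs sampling; a sequence that several methods proposed may carry one label only). The assay is AlphaSeq: two haploid yeast populations carry antibody and antigen on their surface. Pairs that bind mate more often; barcode pairs of the diploids are counted by sequencing. Read counts were normalised to the haploid input and turned into Kd by a linear fit to BCL2-family pairs of known affinity, for each replicate. Each pool was mated in six replicate cultures.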

Each variant's VH is given in full.
This list holds designs with more than six substitutions.
Values are apparent Kd, the geometric mean of the replicates that gave a signal; lower means stronger binding.
A pair that was not seen in any replicate is written "nd"; this usually means weak binding, but a binder can also be missed.
As a blank, each scFv also met three strains without target: over all heavy chain designs, 1% of these pairings were detected, typically at 120 nM and seldom below 7.0 nM.
The parent sequence was in this pool as ten entries: three were never detected, three once, and four in most replicates, with averages from 2.2 nM to 240 nM.
A sequence measured in both rounds can read differently, since the two assays cover different ranges.
The authors averaged sequences with at least three values out of six and counted those with two or fewer as poor binders.

With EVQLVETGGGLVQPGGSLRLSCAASGFDLNEYGISWVRQAPGKGPEWVSVIYADGRRTAYSDSVKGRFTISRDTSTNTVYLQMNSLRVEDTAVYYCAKGEAGGTFDMWGQGTLVTVSS [En_HC] the result was 1.2 nM (6 of 6 replicates). The variant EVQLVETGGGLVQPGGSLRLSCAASGFDLNEYGISWVRQAPGKGPEWVSVIYADGSRTAYSDSVKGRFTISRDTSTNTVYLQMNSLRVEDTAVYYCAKGNNAGTFDIWGQGTLVTVSS [En_Gen] showed 700 pM (6 of 6 replicates). With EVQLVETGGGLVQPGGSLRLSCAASGFNLDEYGISWVRQAPGKGPEWVSVIYADGRRTFYADSVKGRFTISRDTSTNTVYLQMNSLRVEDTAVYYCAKGNVAGTFDVWGQGTLVTVSS [En_HC] the result was 11 nM (4 of 6 replicates). For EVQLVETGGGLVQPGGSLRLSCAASGQQLDQYGISWVRQAPGKGPEWVSVIYADGVRTSYTNDVKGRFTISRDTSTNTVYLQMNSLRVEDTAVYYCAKGEHAGTFMQWGQGTLVTVSS [En_Gibbs], the assay gave 720 nM (1 of 6 replicates). The variant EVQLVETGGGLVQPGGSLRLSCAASGFDLNEYGISWVRQAPGKGPEWVSVIYADGRRTAYADDVKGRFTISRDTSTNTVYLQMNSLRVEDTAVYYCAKGNVAGTFDTWGQGTLVTVSS [En_Gen] gave 610 pM (6 of 6 replicates). The variant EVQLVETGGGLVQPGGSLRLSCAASGFDLNEYGISWVRQAPGKGPEWVSVIYADGMRTAYSDDVKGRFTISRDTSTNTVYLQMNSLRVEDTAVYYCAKGSNAGTFDIWGQGTLVTVSS [En_Gen] gave 360 pM (6 of 6 replicates). For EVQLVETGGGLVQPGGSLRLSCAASGFDLNEYGISWVRQAPGKGPEWVSVIYADGMRKAYADSVKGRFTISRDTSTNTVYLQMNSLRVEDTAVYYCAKGENAGTFDVWGQGTLVTVSS [En_Gen], the assay gave 170 pM (6 of 6 replicates). The variant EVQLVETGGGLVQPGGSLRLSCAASGFDLDEYGISWVRQAPGKGPEWVSVIYADGMRTAYSDSVKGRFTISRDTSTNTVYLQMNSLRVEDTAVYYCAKGNNAGTFDLWGQGTLVTVSS [En_Gen] showed 690 pM (6 of 6 replicates). The variant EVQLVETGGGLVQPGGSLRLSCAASGQSLDEYGISWVRQAPGKGPEWVSVIYADGSRTAYAKSVKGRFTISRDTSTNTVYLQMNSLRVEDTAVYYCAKGLGGFLNIMWGQGTLVTVSS [En_Gibbs] showed nd (0 of 6 replicates).

For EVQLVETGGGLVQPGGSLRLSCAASGFDLNEYGISWVRQAPGKGPEWVSVIYADGKRTFYSDSVKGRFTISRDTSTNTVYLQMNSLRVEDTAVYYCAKGEIAGTFIQWGQGTLVTVSS [En_HC], the assay gave 300 pM (6 of 6 replicates). With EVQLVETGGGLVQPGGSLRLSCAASGFDLNEYGISWVRQAPGKGPEWVSVIYADGMRTAYADSVKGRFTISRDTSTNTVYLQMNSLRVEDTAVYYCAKGANAGTFDVWGQGTLVTVSS [En_Gen] the result was 360 pM (6 of 6 replicates). With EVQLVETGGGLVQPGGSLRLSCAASGFSLDEYGISWVRQAPGKGPEWVSVIYADGVRTQYHPKVKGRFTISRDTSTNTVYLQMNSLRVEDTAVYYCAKGLGGFIFGLWGQGTLVTVSS [En_Gibbs] the result was nd (0 of 6 replicates). With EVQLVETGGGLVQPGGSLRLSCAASGFDLNEYGISWVRQAPGKGPEWVSVIYADGRRTAYIDSVKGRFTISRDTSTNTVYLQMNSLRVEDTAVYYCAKGEIAGTFDMWGQGTLVTVSS [En_HC] the result was 390 pM (6 of 6 replicates). The variant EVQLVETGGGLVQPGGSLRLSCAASGFEIQEYGISWVRQAPGKGPEWVSVIYADGRRTAYAENVKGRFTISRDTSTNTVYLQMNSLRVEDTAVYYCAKGTMAGTLSTWGQGTLVTVSS [En_Gibbs] showed 2.8 nM (6 of 6 replicates). The variant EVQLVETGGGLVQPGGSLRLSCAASGFDLNEYGISWVRQAPGKGPEWVSVIYADGKRTYYADDVKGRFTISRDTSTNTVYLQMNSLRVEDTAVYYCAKGENAGTFDVWGQGTLVTVSS [En_Gen] gave 12 nM (5 of 6 replicates). The variant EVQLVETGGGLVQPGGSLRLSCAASGFQINEYGISWVRQAPGKGPEWVSVIYADGMRTGYADDVKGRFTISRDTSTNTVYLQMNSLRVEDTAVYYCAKGMKDVNIFDWGQGTLVTVSS [En_Gibbs] showed 4.5 µM (1 of 6 replicates). With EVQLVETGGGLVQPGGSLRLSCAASGFDLNEYGISWVRQAPGKGPEWVSVIYADGHRTAYSNNVKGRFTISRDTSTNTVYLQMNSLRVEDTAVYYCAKGGQAGIALSWGQGTLVTVSS [En_Gibbs] the result was nd (0 of 6 replicates). For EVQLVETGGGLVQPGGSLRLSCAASGFSIDEYGISWVRQAPGKGPEWVSVIYADGVRTAVDPSVKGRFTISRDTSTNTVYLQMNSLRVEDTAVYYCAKGQMAAYFDKWGQGTLVTVSS [En_Gibbs], the assay gave nd (0 of 6 replicates).

For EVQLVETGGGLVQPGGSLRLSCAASGFDLDEYGISWVRQAPGKGPEWVSVIYADGQRTAYSDSVKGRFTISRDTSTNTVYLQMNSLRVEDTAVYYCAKGETAGTFDQWGQGTLVTVSS [En_Gen], the assay gave 850 pM (6 of 6 replicates). The variant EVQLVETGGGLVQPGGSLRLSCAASGFDLNEYGISWVRQAPGKGPEWVSVIYADGMRTAYTDSVKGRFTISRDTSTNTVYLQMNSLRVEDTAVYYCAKGNIAGTFDSWGQGTLVTVSS [En_HC] showed 530 pM (6 of 6 replicates). For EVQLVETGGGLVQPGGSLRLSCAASGFDLDEYGISWVRQAPGKGPEWVSVIYADGMRKAYADSVKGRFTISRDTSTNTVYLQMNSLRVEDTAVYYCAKGENAGTFDVWGQGTLVTVSS [En_Gen], the assay gave 160 pM (3 of 6 replicates). With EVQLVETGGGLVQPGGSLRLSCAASGFTLNDYGISWVRQAPGKGPEWVSVIYSDGRYTQYIDEVKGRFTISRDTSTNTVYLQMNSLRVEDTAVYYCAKGTPAGTFDSWGQGTLVTVSS [Rand] the result was nd (0 of 6 replicates). With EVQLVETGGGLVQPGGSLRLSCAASGFDLNEYGISWVRQAPGKGPEWVSVIYADGVRTAYSDSVKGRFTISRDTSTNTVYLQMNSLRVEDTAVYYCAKGETAGTFDLWGQGTLVTVSS [En_Gen] the result was 440 pM (4 of 6 replicates). The variant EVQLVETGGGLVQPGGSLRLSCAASGFDLNEYGISWVRQAPGKGPEWVSVIYADGMRTAYADSVKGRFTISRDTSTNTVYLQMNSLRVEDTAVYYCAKGGNAGTFDTWGQGTLVTVSS [En_Gen] showed 6.6 nM (6 of 6 replicates). The variant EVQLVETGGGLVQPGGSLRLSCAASGFDLNEYGISWVRQAPGKGPEWVSVIYADGRRTAYSDSVKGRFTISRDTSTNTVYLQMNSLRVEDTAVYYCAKGNNAGTFDLWGQGTLVTVSS [En_Gen] gave 29 nM (2 of 6 replicates). For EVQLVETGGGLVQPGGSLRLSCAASGFDLNEYGISWVRQAPGKGPEWVSVIYADGMRTFYADSVKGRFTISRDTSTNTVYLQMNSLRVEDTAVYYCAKGNVAGTFDIWGQGTLVTVSS [En_Gen], the assay gave 3.8 nM (5 of 6 replicates).

For reference, 3 entries of the list once more:

{"VH": "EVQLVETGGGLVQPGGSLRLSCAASGFDLNEYGISWVRQAPGKGPEWVSVIYADGMRKAYADSVKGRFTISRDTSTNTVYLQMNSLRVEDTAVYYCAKGENAGTFDVWGQGTLVTVSS", "group": "En_Gen", "Kd (apparent)": "170 pM", "replicates with signal": "6/6"}
{"VH": "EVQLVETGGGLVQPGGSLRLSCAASGFDLNEYGISWVRQAPGKGPEWVSVIYADGRRTAYIDSVKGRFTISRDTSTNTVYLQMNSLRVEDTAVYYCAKGEIAGTFDMWGQGTLVTVSS", "group": "En_HC", "Kd (apparent)": "390 pM", "replicates with signal": "6/6"}
{"VH": "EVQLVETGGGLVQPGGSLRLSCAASGFDLNEYGISWVRQAPGKGPEWVSVIYADGRRTAYSDSVKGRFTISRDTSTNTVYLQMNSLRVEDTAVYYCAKGNNAGTFDLWGQGTLVTVSS", "group": "En_Gen", "Kd (apparent)": "29 nM", "replicates with signal": "2/6"}